The substances below were run against T1, full-length B-Catenin (Uniprot ID P35222) (Homo sapiens, UniProt P35222). Conditions: competition fluorescence polarization; read-out: beta-Catenin FP IC50.
T1 construct: 10 nM full-length B-Catenin (Uniprot ID P35222)
Format: binding

Sequences of proteins named here, by UniProt entry; tags and fusion partners are left off.
UniProt P35222, whole entry: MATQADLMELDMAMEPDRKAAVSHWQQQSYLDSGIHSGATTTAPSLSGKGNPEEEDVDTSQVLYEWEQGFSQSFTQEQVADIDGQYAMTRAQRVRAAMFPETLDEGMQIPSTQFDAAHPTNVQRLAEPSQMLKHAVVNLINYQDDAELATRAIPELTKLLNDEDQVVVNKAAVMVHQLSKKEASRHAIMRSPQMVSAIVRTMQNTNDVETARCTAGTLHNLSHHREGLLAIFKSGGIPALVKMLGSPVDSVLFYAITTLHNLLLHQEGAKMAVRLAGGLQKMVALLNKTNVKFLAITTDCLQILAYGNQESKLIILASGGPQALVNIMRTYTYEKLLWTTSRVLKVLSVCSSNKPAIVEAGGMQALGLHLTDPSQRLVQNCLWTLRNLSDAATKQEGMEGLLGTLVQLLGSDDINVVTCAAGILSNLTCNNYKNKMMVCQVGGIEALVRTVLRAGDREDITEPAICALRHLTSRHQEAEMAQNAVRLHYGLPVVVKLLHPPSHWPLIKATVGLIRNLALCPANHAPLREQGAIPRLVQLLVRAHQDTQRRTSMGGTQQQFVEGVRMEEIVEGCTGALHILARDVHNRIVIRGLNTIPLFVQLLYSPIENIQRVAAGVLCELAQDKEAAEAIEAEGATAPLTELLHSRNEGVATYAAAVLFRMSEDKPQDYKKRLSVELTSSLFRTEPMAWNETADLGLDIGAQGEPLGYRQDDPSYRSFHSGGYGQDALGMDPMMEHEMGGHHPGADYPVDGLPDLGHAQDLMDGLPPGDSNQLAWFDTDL

| Substance | IC50 [nM] |
| --- | --- |
| 124TriAc-PL3-Asp-DipA-B5-Asp-3COOHF-CyLeu-Ala-Phe-Lys*3-PyrS2-3Thi-34ClF-GlnR*3-NH2 [I-1718] | < 50 |
| 124TriAc-PL3-Asp-Npg-B5-Asp-3COOHF-Aib-Ala-Phe-Lys*3-PyrS2-3Thi-BztA-GlnR*3-Ala-NH2 [I-1075] | < 50 |
| 124TriPr-PL3-Asp-Npg-B5-Asp-3COOHF-Aib-Ala-Phe-Lys*3-PyrS2-3Thi-BztA-GlnR*3-Ala-NH2 [I-1065] | < 50 |
| Ac-Ala-Ala-S5-Ser-Asp-Npg-B5-Asp-3COOHF-Aib-Ala-Phe-Lys*3-PyrS2-3Thi-BztA-GlnR*3-Ala [I-1287] | 50 to 200 |
| Ac-Ala-Ser-S5-Ala-Asp-Npg-B5-Asp-3COOHF-Aib-Ala-Phe-Lys*3-PyrS2-3Thi-BztA-GlnR*3-Ala [I-1293] | 50 to 200 |
| Ac-Asp-Ala-S5-Ala-Asp-Npg-B5-Asp-3COOHF-Aib-Ala-Phe-Lys*3-PyrS2-3Thi-BztA-GlnR*3-Ala [I-1285] | < 50 |
| Ac-Asp-Ala-S5-Ser-Asp-Npg-B5-Asp-3COOHF-Aib-Ala-Phe-Lys*3-PyrS2-3Thi-BztA-GlnR*3-Ala [I-1288] | < 50 |
| Ac-Asp-Ser-S5-Ala-Asp-Npg-B5-Asp-3COOHF-Aib-Ala-Phe-Lys*3-PyrS2-3Thi-BztA-GlnR*3-Ala [I-1294] | < 50 |
| Ac-PL3-3Thi-Npg-B5-Asp-3COOHF-Aib-Ala-Phe-Lys*3-PyrS2-3Thi-BztA-GlnR*3-Ala-NH2 [I-931] | > 1000 |
| Ac-PL3-Aad-Npg-B5-Asp-3COOHF-Aib-Ala-Phe-Lys*3-PyrS2-3Thi-BztA-GlnR*3-Ala-NH2 [I-546] | 200 to 750 |
| Ac-PL3-Asn-DipA-B5-Asp-3COOHF-CyLeu-Ala-Phe-Lys*3-PyrS2-3Thi-34ClF-GlnR*3-NH2 [I-1630] | < 50 |
| Ac-PL3-Asn-DipA-B5-Asp-3COOHF-nLeu-Ala-Phe-Lys*3-PyrS2-3Thi-34ClF-GlnR*3-NH2 [I-1636] | < 50 |
| Ac-PL3-Asn-DipA-B5-Asp-3COOHF-nLeu-Ala-Phe-Lys*3-PyrS2-3Thi-BztA-GlnR*3-NH2 [I-1680] | < 50 |
| Ac-PL3-Asp-Cba-B5-Asp-3COOHF-CyhLeu-Ala-Phe-Lys*3-PyrS2-3Thi-BztA-GlnR*3-Ala-NH2 [I-854] | < 50 |
| Ac-PL3-Asp-Cha-B5-Asp-3COOHF-Aib-Ala-Phe-Lys*3-PyrS2-2ClF-34ClF-GlnR*3-NH2 [I-1502] | < 50 |
| Ac-PL3-Asp-Cha-B5-Asp-3COOHF-Aib-Ala-Phe-Lys*3-PyrS2-2ClF-BztA-GlnR*3-Ala-NH2 [I-1643] | < 50 |
| Ac-PL3-Asp-Cha-B5-Asp-3COOHF-Aib-Ala-Phe-Lys*3-PyrS2-2ClF-BztA-GlnR*3-Leu-NH2 [I-1641] | < 50 |
| Ac-PL3-Asp-Cha-B5-Asp-3COOHF-Aib-Ala-Phe-Lys*3-PyrS2-2FF-BztA-GlnR*3-Ala-NH2 [I-1652] | < 50 |
| Ac-PL3-Asp-Cha-B5-Asp-3COOHF-Aib-Ala-Phe-Lys*3-PyrS2-2FF-BztA-GlnR*3-Leu-NH2 [I-1650] | < 50 |
| Ac-PL3-Asp-Cha-B5-Asp-3COOHF-Aib-Ala-Phe-Lys*3-PyrS2-2FF-BztA-GlnR*3-NH2 [I-1653] | < 50 |
| Ac-PL3-Asp-Cha-B5-Asp-3COOHF-Aib-Ala-Phe-Lys*3-PyrS2-2MeF-34ClF-GlnR*3-NH2 [I-1515] | 200 to 750 |
| Ac-PL3-Asp-Cha-B5-Asp-3COOHF-Aib-Ala-Phe-Lys*3-PyrS2-Phe-BztA-GlnR*3-Ala-NH2 [I-1647] | < 50 |

| Substance | IC50 [nM] |
| --- | --- |
| Ac-PL3-Asp-Cha-B5-Asp-3COOHF-Aib-Ala-Phe-Lys*3-PyrS2-Phe-BztA-GlnR*3-Leu-NH2 [I-1645] | < 50 |
| Ac-PL3-Asp-Cha-B5-Asp-3COOHF-Aib-Ala-Phe-Lys*3-PyrS2-Phe-BztA-GlnR*3-NH2 [I-1648] | < 50 |
| Ac-PL3-Asp-Cha-B5-Asp-3COOHF-Ala-Ala-Phe-Lys*3-PyrS2-2ClF-34ClF-GlnR*3-NH2 [I-1503] | < 50 |
| Ac-PL3-Asp-Cha-B5-Asp-3COOHF-Ala-Ala-Phe-Lys*3-PyrS2-2ClF-BztA-GlnR*3-NH2 [I-1528] | < 50 |
| Ac-PL3-Asp-Cha-B5-Asp-3COOHF-Ala-Ala-Phe-Lys*3-PyrS2-2F3MeF-BztA-GlnR*3-Leu-NH2 [I-107] | < 50 |
| Ac-PL3-Asp-Cha-B5-Asp-3COOHF-Ala-Ala-Phe-Lys*3-PyrS2-2MeF-34ClF-GlnR*3-NH2 [I-1516] | 200 to 750 |
| Ac-PL3-Asp-Cha-B5-Asp-3COOHF-CyLeu-Ala-Phe-Lys*3-PyrS2-2ClF-34ClF-GlnR*3-NH2 [I-1504] | < 50 |
| Ac-PL3-Asp-Cha-B5-Asp-3COOHF-CyLeu-Ala-Phe-Lys*3-PyrS2-2ClF-BztA-GlnR*3-NH2 [I-1529] | < 50 |
| Ac-PL3-Asp-Cha-B5-Asp-3COOHF-CyLeu-Ala-Phe-Lys*3-PyrS2-3Thi-34ClF-GlnR*3-NH2 [I-1046] | < 50 |
| Ac-PL3-Asp-Cha-B5-Asp-3COOHF-CyLeu-Ala-Phe-Lys*3-PyrS2-Phe-34ClF-GlnR*3-NH2 [I-1058] | < 50 |
| Ac-PL3-Asp-Chg-B5-Asp-3COOHF-Aib-Ala-Phe-Lys*3-PyrS2-2ClF-34ClF-GlnR*3-NH2 [I-1505] | < 50 |
| Ac-PL3-Asp-Chg-B5-Asp-3COOHF-Aib-Ala-Phe-Lys*3-PyrS2-2ClF-BztA-GlnR*3-NH2 [I-1530] | < 50 |
| Ac-PL3-Asp-Chg-B5-Asp-3COOHF-Aib-Ala-Phe-Lys*3-PyrS2-2MeF-34ClF-GlnR*3-NH2 [I-1517] | 200 to 750 |
| Ac-PL3-Asp-Chg-B5-Asp-3COOHF-Aib-Ala-Phe-Lys*3-PyrS2-3Thi-34ClF-GlnR*3-NH2 [I-1037] | < 50 |
| Ac-PL3-Asp-Chg-B5-Asp-3COOHF-Aib-Ala-Phe-Lys*3-PyrS2-3Thi-BztA-GlnR*3-Ala-NH2 [I-707] | < 50 |
| Ac-PL3-Asp-Chg-B5-Asp-3COOHF-Aib-Ala-Phe-Lys*3-PyrS2-Phe-34ClF-GlnR*3-NH2 [I-1048] | < 50 |
| Ac-PL3-Asp-Chg-B5-Asp-3COOHF-Aib-Thr-Phe-Lys*3-PyrS2-3Thi-BztA-GlnR*3-Ala-NH2 [I-997] | < 50 |
| Ac-PL3-Asp-Chg-B5-Asp-3COOHF-Ala-Ala-Phe-Lys*3-PyrS2-2ClF-34ClF-GlnR*3-NH2 [I-1506] | < 50 |
| Ac-PL3-Asp-Chg-B5-Asp-3COOHF-Ala-Ala-Phe-Lys*3-PyrS2-2ClF-BztA-GlnR*3-NH2 [I-1531] | < 50 |
| Ac-PL3-Asp-Chg-B5-Asp-3COOHF-Ala-Ala-Phe-Lys*3-PyrS2-2MeF-34ClF-GlnR*3-NH2 [I-1518] | < 50 |
| Ac-PL3-Asp-Chg-B5-Asp-3COOHF-Ala-Ala-Phe-Lys*3-PyrS2-3Thi-BztA-GlnR*3-Ala-NH2 [I-976] | < 50 |
| Ac-PL3-Asp-Chg-B5-Asp-3COOHF-Cbg-Ala-Phe-Lys*3-PyrS2-3Thi-BztA-GlnR*3-Ala-NH2 [I-857] | < 50 |

| Substance | IC50 [nM] |
| --- | --- |
| Ac-PL3-Asp-Chg-B5-Asp-3COOHF-CyLeu-Ala-Phe-Lys*3-PyrS2-2ClF-34ClF-GlnR*3-NH2 [I-1507] | < 50 |
| Ac-PL3-Asp-Chg-B5-Asp-3COOHF-CyLeu-Ala-Phe-Lys*3-PyrS2-3Thi-34ClF-GlnR*3-NH2 [I-1044] | < 50 |
| Ac-PL3-Asp-Chg-B5-Asp-3COOHF-CyLeu-Ala-Phe-Lys*3-PyrS2-Phe-34ClF-GlnR*3-NH2 [I-1056] | < 50 |
| Ac-PL3-Asp-Chg-B5-Asp-3COOHF-Dpg-Ala-Phe-Lys*3-PyrS2-3Thi-BztA-GlnR*3-Ala-NH2 [I-980] | < 50 |
| Ac-PL3-Asp-Chg-B5-Asp-3COOHF-Gly-Ala-Phe-Lys*3-PyrS2-3Thi-BztA-GlnR*3-Ala-NH2 [I-994] | < 50 |
| Ac-PL3-Asp-Chg-B5-Asp-3COOHF-Val-Ala-Phe-Lys*3-PyrS2-3Thi-BztA-GlnR*3-Ala-NH2 [I-978] | < 50 |
| Ac-PL3-Asp-Chg-B5-Asp-3COOHF-nLeu-Ala-Phe-Lys*3-PyrS2-3Thi-BztA-GlnR*3-Ala-NH2 [I-979] | < 50 |
| Ac-PL3-Asp-DipA-B5-Asn-3COOHF-CyLeu-Ala-Phe-Lys*3-PyrS2-3Thi-34ClF-GlnR*3-NH2 [I-1632] | < 50 |
| Ac-PL3-Asp-DipA-B5-Asn-3COOHF-nLeu-Ala-Phe-Lys*3-PyrS2-3Thi-34ClF-GlnR*3-NH2 [I-1638] | < 50 |
| Ac-PL3-Asp-DipA-B5-Asp-3COOHF-Aib-Ala-Phe-Lys*3-PyrS2-3Thi-34ClF-GlnR*3-Ala-NH2 [I-1109] | < 50 |
| Ac-PL3-Asp-DipA-B5-Asp-3COOHF-Aib-Ala-Phe-Lys*3-PyrS2-3Thi-34ClF-GlnR*3-NH2 [I-1108] | < 50 |
| Ac-PL3-Asp-DipA-B5-Asp-3COOHF-Aib-Ala-Phe-Lys*3-PyrS2-3Thi-34ClF-GlnR*3-Ser-NH2 [I-1110] | < 50 |
| Ac-PL3-Asp-DipA-B5-Asp-3COOHF-Aib-Thr-Phe-Lys*3-PyrS2-3Thi-BztA-GlnR*3-Ala-NH2 [I-1005] | < 50 |
| Ac-PL3-Asp-DipA-B5-Asp-3COOHF-Ala-Ala-Phe-Lys*3-PyrS2-3Thi-34ClF-GlnR*3-Ala-Ala-[AdamantC-PEG8]--Lys-NH2 [I-1918] | < 50 |
| Ac-PL3-Asp-DipA-B5-Asp-3COOHF-Ala-Ala-Phe-Lys*3-PyrS2-3Thi-34ClF-GlnR*3-Ala-Ala-[AdamantC-dPEG2]-Lys-NH2 [I-1917] | < 50 |
| Ac-PL3-Asp-DipA-B5-Asp-3COOHF-Ala-Ala-Phe-Lys*3-PyrS2-3Thi-34ClF-GlnR*3-Ala-Ala-[lithocholate-PEG8]-Lys-NH2 [I-1920] | 50 to 200 |
| Ac-PL3-Asp-DipA-B5-Asp-3COOHF-Ala-Ala-Phe-Lys*3-PyrS2-3Thi-34ClF-GlnR*3-Ala-Ala-[lithocholate-dPEG2]-Lys-NH2 [I-1919] | 50 to 200 |
| Ac-PL3-Asp-DipA-B5-Asp-3COOHF-Ala-Ala-Phe-Lys*3-PyrS2-3Thi-34ClF-GlnR*3-Ala-NH2 [I-1112] | < 50 |
| Ac-PL3-Asp-DipA-B5-Asp-3COOHF-Ala-Ala-Phe-Lys*3-PyrS2-3Thi-34ClF-GlnR*3-NH2 [I-1111] | < 50 |
| Ac-PL3-Asp-DipA-B5-Asp-3COOHF-Ala-Ala-Phe-Lys*3-PyrS2-3Thi-34ClF-GlnR*3-Ser-NH2 [I-1113] | < 50 |
| Ac-PL3-Asp-DipA-B5-Asp-3COOHF-Ala-Ala-Phe-Lys*3-PyrS2-3Thi-34ClF-GlnR*3-[mPEG8]-Lys-NH2 [I-1701] | < 50 |
